Each substance was assayed against T1, human somatostatin receptor 2 (Homo sapiens, UniProt P30874) (assay: Whole cell patch-clamp current recordings of bridged somatostatin analogues). Settings: 20 μM; HEK 293 cells expressing HKIR3.1/3.2 channel and human somatostatin receptor 2; clamped at −60 mV.
T1 construct: host or cells: HEK293 cells stably expressing Kir3.1 and Kir3.2A
Assay type: cell-based
Experimental: HEK 293 cells expressing HKIR3.1/3.2 channel and human somatostatin receptor 2 were treated with these compounds, and whole cell patch-clamp current recordings taken.
Cell-culture methods and the generation of stable cell lines were carried out as described in J Biol Chem 275, 921-9 (2000). HEK293 cells (human embryonic kidney cell line) stably expressing Kir3.1 and Kir3.2A channels were maintained in minimum essential medium supplemented with 10% foetal calf serum and 727 μg of G418 (Invitrogen), at 37° C. in humidified atmosphere (95% O2, 5% CO2). Cells were transiently transfected with SSTR2DNA (Missouri S&T cDNA Resource Center) along with pEGFP-N1 (Clontech) for visualization of transfected cells using epifluorescence. Transfections were performed with 5 μl of Fugene HD (Roche) and 800 ng SSTR2-DNA and 40 ng EGFP-DNA per 97 μl of cell culture medium (containing no serum or antibiotics).
Bridged somatostatins were prepared as described above. Somatostatin and its analogues were dialysed for 24 h at 4° C. in buffer (50 mM sodium phosphate, pH 6.2) to remove the organic solvents. After dialysis the concentration was determined and the peptides stored at 4° C. A final concentration of 20 μM somatostatin and analogues were used (dilution was done in the extracellular patch-clamp buffer).
Whole cell patch-clamp current recordings were performed with an Axopatch 200B amplifier (Axon Instruments) using fire-polished pipettes with a resistance of 3-4 MΩ pulled from filamented borosilicated glass capillaries (Harvard Apparatus, 1.5 mm OD×1.17 mm ID). Data was acquired and analysed via a Digidata 1322A interface (Axon Instruments) and pCLAMP software (version 8.1, Axon Instruments). A fast perfusion system was used to apply somatostatin and analogues (Rapid Solution Changer, RSC-160, Bio-Logic France). Cells were clamped at −60 mV. […] For each cell it was assessed if flow artifacts resulting from the pressure of drug application were present. […]

Protein sequences, listed by entry. Tags and fused reporters are not part of them. Lines headed by an entry give the natural chain unless they say otherwise; changes in a name come on top.
UniProt P30874: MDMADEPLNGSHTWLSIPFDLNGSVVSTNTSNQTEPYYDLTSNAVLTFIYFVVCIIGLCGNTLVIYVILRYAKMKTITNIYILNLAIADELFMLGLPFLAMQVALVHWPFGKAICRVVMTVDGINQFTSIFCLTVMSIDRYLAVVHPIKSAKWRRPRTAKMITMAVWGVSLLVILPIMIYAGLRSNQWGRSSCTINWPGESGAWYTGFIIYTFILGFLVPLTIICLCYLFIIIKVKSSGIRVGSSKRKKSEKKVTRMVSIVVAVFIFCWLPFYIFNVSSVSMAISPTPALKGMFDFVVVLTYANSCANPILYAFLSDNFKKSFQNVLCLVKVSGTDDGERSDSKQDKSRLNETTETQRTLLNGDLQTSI

With “PEGylated-dibromomaleimide bridged analogue: somatostatin reduced and bridged with N-PEG dibromomaleimide” as the substance, how does the “activation of GIRK currents (whole cell patch-clamp current amplitude)” value (shortened to “activation of GIRK currents”) read?
The value was “robust activation of GIRK currents in an amplitude comparable to somatostatin iteslf”.

How did the “activation of GIRK currents” value turn out when “dibromomaleimide bridged analogue: somatostatin whose two reduced cysteine residues are bridged by reaction with dibromomaleimide” was run?
Its value is “robust activation of GIRK currents in an amplitude comparable to somatostatin iteslf”.

Which “activation of GIRK currents” value does the source give for “fluorescein dibromomaleimide-bridged analogue: somatostatin reduced and bridged with N-fluorescein dibromomaleimide” here?
Its value is “robust activation of GIRK currents in an amplitude comparable to somatostatin iteslf”.
